Measured values reported in patent publication US8293729B2 (Boehringer Ingelheim International GmbH, priority 2009, dated 2012).

Chains of the proteins cited; added tags and fusions are not shown. A line that says so, or that is headed by a name, gives the form on record, which may keep a tag or linker. Residues count along the entry.
UniProt Q8TDV5, 2-335 with tags or gaps S329A/T327A limits assumed: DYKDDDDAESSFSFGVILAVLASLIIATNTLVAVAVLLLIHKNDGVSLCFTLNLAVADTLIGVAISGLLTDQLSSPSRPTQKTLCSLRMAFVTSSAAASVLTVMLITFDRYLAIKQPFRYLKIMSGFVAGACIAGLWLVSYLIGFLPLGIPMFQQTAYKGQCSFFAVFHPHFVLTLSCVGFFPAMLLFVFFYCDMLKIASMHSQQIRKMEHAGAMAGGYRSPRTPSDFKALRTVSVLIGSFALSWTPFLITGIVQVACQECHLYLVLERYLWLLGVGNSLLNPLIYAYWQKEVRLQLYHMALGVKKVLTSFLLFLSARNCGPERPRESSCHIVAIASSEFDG

Biological target: human GPR119 receptor (Homo sapiens, UniProt Q8TDV5, S329A/T327A)
Experiment: cAMP assay (LANCE cAMP-384) in HEK293 cells stably expressing mutant human GPR119 receptor
Description: Quantitative detection of cAMP accumulation from cells expressing human GPR119 receptor was achieved using Perkin Elmer's LANCE cAMP-384 Kit (Cat#AD0264) according to the manufacturer's protocol. Briefly, HEK293 cells stably expressing a mutant form of the human GPR119 receptor (Methionine 1 replaced with the amino acid sequence […] (SEQ ID NO: 1), and T327 & S329 changed to alanines) were grown to 50-70% confluency in cell culture media (DMEM, 10% heat inactivated Fetal Bovine Serum, 50 I.U./mL penicillin, 50 μg/mL streptomycin, 10 mM HEPES, 20 μg/mL G418 Sulfate). On the day of the assay, GPR119 stable HEK293 cells were lifted from the tissue culture plate and 1000 cells/well were incubated along with various concentrations of test compounds for 20 min at 37° C. Detection Buffer (50mM HEPES, 10mM calcium chloride, 0.35% Triton X-100, 1 mg/mL BSA) containing cAMP-specific antibody was then added to all wells and allowed to equilibrate in the dark for 10 minutes at room temperature. Upon equilibration, Detection Buffer containing europium-labeled cAMP tracer complex was added to all wells and allowed to react for 1 hour at room temperature. After 1 hour, bound europium-labeled cAMP tracer was measured using a Perkin Elmer ViewLux. The quantity of cAMP generated in each well was derived from a standard curve. EC50 was determined using nonlinear regression analysis of the cAMP values over a range of agonist concentration (12 points spanning the range from 30 μM to 100pM).
For some compounds for which no EC50 value could be determined, the efficacy is provided at a single concentration (10 μM) yielding % stimulation values.

[1] = cAMP accumulation, HEK293 cells stably expressing mutant human GPR119
[2] = the 34th table, compounds 65-1 to 65-24, tested form: TFA
[3] = cAMP accumulation, HEK293 cells expressing mutant human GPR119, column head prints no unit
[4] = the 35th table, compounds 65-25 to 65-36

`COc1nc(N2CCC(=NOC3CCN(C(=O)OC(C)C)CC3)CC2)ncc1S(C)(=O)=O` gave an EC50 [1] of 296 nM.
`Cc1ccnc(N2CCC(ON=C3CCN(c4ccc(S(C)(=O)=O)cc4F)CC3)CC2)c1` was tested, and the EC50 (the 32nd table) was 1760 nM.
`COc1ncc(-c2cc(F)c(N3CCC(=NOC4CCN(C(=O)OC(C)C)CC4)CC3)cc2F)cn1` gave an EC50 [1] of 736 nM.
`CC(C)OC(=O)N1CCC(ON=C2CCN(c3ncc([S+](C)[O-])c(N(C)C)n3)CC2)CC1` (centres unmarked) showed an EC50 [1] greater than 10000 nM.
`CC(C)OC(=O)N1CCC(ON=C2CCN(c3ncc(S(C)(=O)=O)c(N(C)C)n3)CC2)CC1` gave an EC50 [1] of 799 nM.
`CS(=O)(=O)c1ccc(N2CCC(=NOC3CCN(C(=O)c4ccc(Cl)cc4)CC3)CC2)c(F)c1` was tested, and the EC50 [2] was 55 nM.
`CCN(CC)CCCC(C)NC(=O)c1cc(F)c(N2CCC(=NOC3CCN(C(=O)c4ccc(Cl)cc4)CC3)CC2)cc1F` (centres unmarked) gave an EC50 [3] of 39 nM.
For `CS(=O)(=O)c1ccc(N2CCC(=NOC3CCN(C(=O)CC4CCCC4)CC3)CC2)c(F)c1`, the EC50 [2] was 88 nM.
For `CCCC(=O)N1CCC(ON=C2CCN(c3cc(F)c(S(C)(=O)=O)cc3F)CC2)CC1`, the EC50 [4] was 273 nM.
Compound `CS(=O)(=O)c1ccc(N2CCC(=NOC3CCN(C(=O)C4CCCC4)CC3)CC2)c(F)c1` has an EC50 [2] of 39 nM.
With `CCCCC(=O)N1CCC(ON=C2CCN(c3cc(F)c(S(C)(=O)=O)cc3F)CC2)CC1` the EC50 [4] was 112 nM.
In the case of `CCc1ccc(CN2CCC(ON=C3CCN(c4cc(F)c(C(=O)NCC5COCCN5)cc4F)CC3)CC2)cc1` (centres unmarked), the EC50 [3] is reported as 624 nM.
With `CS(=O)(=O)c1cc(F)c(N2CCC(=NOC3CCN(C(=O)c4ccc(Cl)cc4)CC3)CC2)cc1F` the EC50 [4] was 302 nM.
`CCOC(=O)N(C)Cc1cc(F)c(N2CCC(=NOC3CCN(C(=O)OC(C)C)CC3)CC2)cc1F` gave an EC50 [1] of 304 nM.
